{
  "source": "patent US12060387B2",
  "about": "“Polypeptide-based shuttle agents for improving the transduction efficiency of polypeptide cargos to the cytosol of target eukaryotic cells, uses thereof, methods and kits relating to same” (priority 2015, dated 2024)",
  "key": {"[1]": {"experiment": "Cell toxicity / % cell viability by flow cytometry (cells in total events v. untreated)", "format": "cell-based", "conditions": "human, HeLa cells, Cell viability (%) (±St. Dev.; n = 3), FIG. 29D"}, "HeLa cells": {"system": "HeLa cells", "experiment": "GFP-NLS transduction efficiency, flow cytometry (Pos cells %, relative fluorescence intensity FL1-A)", "format": "cell-based, Human", "conditions": "Protocol B, peptide 50 μM, GFP-NLS 5 μM, 10 seconds"}},
  "data": [
    {"smiles": "CC[C@H](C)[C@H](NC(=O)[C@H](CCCCN)NC(=O)[C@@H](NC(=O)[C@H](CCC(N)=O)NC(=O)[C@@H](N)CCCNC(=N)N)[C@@H](C)CC)C(=O)N[C@@H](Cc1c[nH]c2ccccc12)C(=O)N[C@@H](Cc1ccccc1)C(=O)N[C@@H](CCC(N)=O)C(=O)N[C@@H](CC(N)=O)C(=O)N[C@@H](CCCNC(=N)N)C(=O)N[C@@H](CCCNC(=N)N)C(=O)N[C@@H](CCSC)C(=O)N[C@@H](CCCCN)C(=O)N[C@@H](Cc1c[nH]c2ccccc12)C(=O)N[C@@H](CCCCN)C(=O)N[C@@H](CCCCN)C(=O)N[C@@H](CS)C(=O)O", "note": "[Penetratin (Pen)]", "values": [
      {"measurement": "viability at 10 s, 50 µM", "setting": "[1]", "result": "96 ± 0.6", "unit": "%"},
      {"measurement": "Mean % cells with GFP signal (±St. Dev.; n = 3), FIG. 29D", "setting": "HeLa cells", "result": "3.6 ± 0.1", "unit": "%"}
    ]}
  ]
}
